AlphaSeq binding of Ab-95 light chain variants to a spike HR2 peptide

Source: Engelhart et al. 2022 (doi:10.1038/s41597-022-01779-4), MIT Lincoln Laboratory and A-Alpha Bio; data file from the FLAb repository.

Antigen: PDVDLGDISGINAS, a 14-residue peptide of the SARS-CoV-2 spike HR2 region.

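Library AAYL52 holds single substitutions and randomly drawn double and triple substitutions in the CDRs. In AlphaSeq, yeast of one mating type display the scFv and yeast of the other type display the target. Binding brings cells together so that they mate, and sequencing counts the barcode pairs among the diploids. The ratio of observed to expected reads was calibrated, replicate by replicate, on BCL2-family standards whose Kd was known from biolayer interferometry. Mating was done three times.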

Ab-95 is the parent antibody, in scFv form: VH, then a 15-residue (Gly4Ser)3 linker, then VL. The heavy chain is unchanged in all variants.
VH: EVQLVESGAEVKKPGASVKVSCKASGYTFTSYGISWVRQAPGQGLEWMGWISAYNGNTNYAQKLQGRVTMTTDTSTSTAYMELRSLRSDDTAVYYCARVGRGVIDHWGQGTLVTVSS
VL: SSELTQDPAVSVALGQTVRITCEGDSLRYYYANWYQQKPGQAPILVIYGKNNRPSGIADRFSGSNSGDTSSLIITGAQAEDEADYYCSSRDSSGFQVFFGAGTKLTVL

Positions count from residue 1 of the parent VL; G49S puts S in place of G.
Numbers give log10(Kd / nM), so 0 is 1 nM and 3 is 1 µM. Smaller is tighter.
Averages over replicates are reported, and they cover detected replicates only.
"nd" marks a missing value. The strain was present, yet no cells mated with the target were sequenced in that replicate, which points to weak or no binding.
For reference, the parent read 2.31 as the reference entry and 2.25 as a member of this library.

| changes | log10 Kd (nM) by replicate | mean, log10 nM | empty controls |
|---|---|---|---|
| G49S+K50V+S89A | 4.23 / 3.29 / 4.61 | 4.04 | 4 of 9 (4.55) |
| R28N+S89E | nd / 2.46 / 2.16 | 2.31 | 1 of 9 (4.19) |
| A32F+S55F+S89D | nd / nd / 3.86 | 3.86 | 1 of 9 (4.92) |
| E23H+D25L+S55D | 2.43 / 2.40 / 2.42 | 2.42 | 3 of 9 (4.10) |
| R28L+N51V+N52E | 2.68 / 3.06 / 3.71 | 3.15 | 5 of 9 (3.59) |
| S26K+R28N+Q96L | nd / nd / nd | nd | 0 of 9 |
| E23G+S88Q+Q96P | 2.14 / 1.77 / 2.10 | 2.00 | 1 of 9 (4.07) |
| Y30V+P54A+G94Y | 2.16 / 1.84 / 1.56 | 1.85 | 4 of 9 (3.52) |
| D25P+R90C | 3.49 / 3.90 / 2.32 | 3.24 | 2 of 9 (4.47) |
| Y30A+P54N+S92W | 1.60 / 1.66 / 1.29 | 1.52 | 2 of 9 (3.98) |
| G24Q+G94K+F95K | 5.23 / 4.11 / nd | 4.67 | 0 of 9 |
| L27R+G49C+D91N | nd / nd / nd | nd | 1 of 9 (3.04) |
| Y29N+N52G+S92H | 2.52 / 2.69 / 2.86 | 2.69 | 2 of 9 (4.34) |
| E23N+G24S+S88H | 4.45 / 3.13 / nd | 3.79 | 2 of 9 (3.66) |
| K50I+S55I+F95M | 3.14 / 2.76 / 2.63 | 2.85 | 3 of 9 (3.83) |
| G24K+L27D+Y30F | 3.19 / 3.04 / 2.85 | 3.02 | 6 of 9 (3.53) |
| Y30K+N33H+S93F | 5.31 / nd / 4.44 | 4.88 | 6 of 9 (3.79) |
| A32L+S89C+F95P | nd / 4.21 / nd | 4.21 | 2 of 9 (3.51) |
| A32M+G49F+S88N | nd / nd / 3.99 | 3.99 | 1 of 9 (2.71) |
| N33P+D91F+S92L | 4.30 / nd / nd | 4.30 | 2 of 9 (3.96) |
| Y29E+G49S+S55G | 3.18 / 5.54 / nd | 4.36 | 0 of 9 |
| A32R+N52A+Q96R | 3.03 / 4.46 / 2.68 | 3.39 | 2 of 9 (4.37) |
| D25S+L27K+R53D | 3.77 / 4.79 / nd | 4.28 | 1 of 9 (4.31) |
| S26W+N52R+F95N | 3.08 / 5.52 / 2.53 | 3.71 | 5 of 9 (3.89) |
| E23N+L27E+N51C | 3.78 / 5.80 / nd | 4.79 | 4 of 9 (3.80) |
| N51W+S55E+F95Y | 3.12 / 2.22 / nd | 2.67 | 1 of 9 (3.71) |
| D25K+D91P+G94M | 2.16 / 1.79 / 1.72 | 1.89 | 3 of 9 (3.89) |
| E23D+G49N+D91A | 4.23 / 4.06 / 3.44 | 3.91 | 5 of 9 (4.03) |
| E23N+S88W+D91K | 3.14 / 3.08 / 2.96 | 3.06 | 3 of 9 (4.46) |
| K50D+S92V+F98I | 2.51 / 2.31 / 1.84 | 2.22 | 6 of 9 (3.51) |
| R53N+S92W+G94P | 3.87 / 3.44 / 3.99 | 3.77 | 1 of 9 (3.78) |
| K50Q+S89R+S93E | 3.61 / 2.90 / 4.78 | 3.76 | 4 of 9 (4.88) |
| Y30C+G49E | 3.64 / 3.62 / 3.45 | 3.57 | 4 of 9 (3.96) |
| A32Q+N52Y+Q96W | 5.57 / 4.90 / nd | 5.24 | 2 of 9 (4.86) |
| R28S+K50R+G94W | 2.89 / 3.78 / 2.74 | 3.13 | 1 of 9 (4.11) |

Repeated from above, the 4 best binders with a signal in all replicates:

{"changes": "Y30A+P54N+S92W", "log10 Kd (nM) by replicate": "1.60 / 1.66 / 1.29", "mean, log10 nM": "1.52", "empty controls": "2 of 9 (3.98)"}
{"changes": "Y30V+P54A+G94Y", "log10 Kd (nM) by replicate": "2.16 / 1.84 / 1.56", "mean, log10 nM": "1.85", "empty controls": "4 of 9 (3.52)"}
{"changes": "D25K+D91P+G94M", "log10 Kd (nM) by replicate": "2.16 / 1.79 / 1.72", "mean, log10 nM": "1.89", "empty controls": "3 of 9 (3.89)"}
{"changes": "E23G+S88Q+Q96P", "log10 Kd (nM) by replicate": "2.14 / 1.77 / 2.10", "mean, log10 nM": "2.00", "empty controls": "1 of 9 (4.07)"}

Empty control strains, which show no peptide, gave a signal in 28% of pairings with library AAYL52; the median was 3.91 and 95% of these signals were weaker than 2.90. No background was subtracted. The control count says in how many pairings with the empty strains this scFv gave a signal, with their mean in brackets.